Reference: PMC7201283, “Crystal structure of the NS3-like helicase from Alongshan virus” (IUCrJ, 2020)

Test system: Nc1ncnc2c1ncn2[C@@H]1O[C@H](COP(=O)(O)OP(=O)(O)OP(=O)(O)O)[C@@H](O)[C@H]1O
Assay: purified protein
Details: 20 mM Tris-HCl pH 8.0, 5 mM DTT, 10 mM MgCl2, 28°C, 16 nM enzyme, no RNA

## ALSV NS3-Hel (Alongshan virus)
  Km: 55 ± 8 µM
  kcat: 0.61 ± 0.04 s⁻¹
